Measured values as given in article PMC5472181, “Drug Binding Poses Relate Structure with Efficacy in the μ Opioid Receptor” (2017).

The chains behind the UniProt entries cited, without tags or fusion partners. Where a name states a change or a piece, a line headed by the entry shows the natural chain unless it says otherwise.
UniProt P33535: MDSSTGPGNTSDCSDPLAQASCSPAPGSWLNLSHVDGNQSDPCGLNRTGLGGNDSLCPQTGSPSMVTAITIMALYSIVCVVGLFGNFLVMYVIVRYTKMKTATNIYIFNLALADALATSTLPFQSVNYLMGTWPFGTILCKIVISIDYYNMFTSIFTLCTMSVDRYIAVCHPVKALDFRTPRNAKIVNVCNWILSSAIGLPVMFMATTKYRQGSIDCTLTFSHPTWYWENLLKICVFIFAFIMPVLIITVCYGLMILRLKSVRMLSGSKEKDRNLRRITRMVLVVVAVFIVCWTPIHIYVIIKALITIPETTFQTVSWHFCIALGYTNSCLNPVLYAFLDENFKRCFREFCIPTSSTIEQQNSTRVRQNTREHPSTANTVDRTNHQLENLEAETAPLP

Assays:
[1] = target: rat MOPr-yellow fluorescent protein (YFP) (Rattus norvegicus, UniProt P33535); assay: BRET arrestin-3 recruitment in HEK […] cells, antagonist mode; details: 1 μM diprenorphine 10 min before 10 μM DAMGO, 0.01% DMSO
[2] = target: HA-tagged rat MOPr (Rattus norvegicus, UniProt P33535); assay: BRET Gi activation in HEK […] cells, antagonist mode; details: 1 μM diprenorphine 10 min before 10 μM DAMGO, 0.01% DMSO

diprenorphine
BRET arrestin-3 recruitment in HEK 293 cells, antagonist mode [1]: completely inhibited the DAMGO response for both Gi activation and arrestin-3 recruitment | BRET Gi activation in HEK 293 cells, antagonist mode [2]: completely inhibited the DAMGO response for both Gi activation and arrestin-3 recruitment
